# According to ChEMBL document CHEMBL2176894, “Cyanobacterial peptides as a prototype for the design of potent β-secretase inhibitors and the development of selective chemical probes for other aspartic proteases” (J Med Chem, 2012):
# Sequences of proteins named here, by UniProt entry; tags and fusion partners are left off. Residues count along the entry.
# UniProt P07339, 65-162 limits assumed: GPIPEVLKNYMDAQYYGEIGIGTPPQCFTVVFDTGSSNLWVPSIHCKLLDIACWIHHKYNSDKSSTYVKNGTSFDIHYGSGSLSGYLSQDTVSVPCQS
# UniProt P07339, 169-412 limits assumed: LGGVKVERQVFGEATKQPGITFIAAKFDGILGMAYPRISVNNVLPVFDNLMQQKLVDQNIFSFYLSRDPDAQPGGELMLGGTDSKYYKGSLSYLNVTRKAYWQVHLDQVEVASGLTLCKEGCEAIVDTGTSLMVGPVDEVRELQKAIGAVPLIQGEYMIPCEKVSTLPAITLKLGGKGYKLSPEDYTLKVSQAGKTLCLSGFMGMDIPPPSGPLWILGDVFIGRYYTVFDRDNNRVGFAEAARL
# Target: Cathepsin D (Homo sapiens, UniProt P07339)
# Test: Inhibition of cathepsin D by fluorescence assay
row,IC50,Structure (SMILES)
1,7590 nM,COC(=O)[C@@H]1CCCN1C(=O)[C@@H](Cc1ccccc1)N(C)C(=O)[C@@H](C)NC(=O)[C@H](CC(C)C)NC(=O)C[C@H](O)[C@H](Cc1ccccc1)NC(=O)[C@H](CCC(N)=O)N(C)C(=O)[C@@H](NC(=O)[C@H](C)O)C(C)C
2,182 nM,COC(=O)[C@@H]1CCCN1C(=O)[C@@H](Cc1ccccc1)N(C)C(=O)[C@H](C)NC(=O)[C@H](CC(C)C)NC(=O)C[C@H](O)[C@H](Cc1ccccc1)NC(=O)[C@H](CCC(N)=O)N(C)C(=O)[C@@H](NC(=O)[C@H](C)O)C(C)C
3,3480 nM,COC(=O)[C@@H]1CCCN1C(=O)[C@H](Cc1ccccc1)N(C)C(=O)[C@@H](C)NC(=O)[C@H](CC(C)C)NC(=O)C[C@H](O)[C@H](Cc1ccccc1)NC(=O)[C@H](CCC(N)=O)N(C)C(=O)[C@@H](NC(=O)[C@H](C)O)C(C)C
4,251 nM,COC(=O)[C@@H]1CCCN1C(=O)[C@@H](Cc1ccccc1)N(C)C(=O)[C@H](C)NC(=O)[C@H](CC(C)C)NC(=O)C[C@H](O)[C@H](Cc1ccccc1)NC(=O)[C@H](CCC(N)=O)N(C)C(=O)[C@@H](NC(=O)[C@H](C)O)C(C)C [TASIAMIDE B]
